From ChEMBL document CHEMBL1154595, “Discovery of selective nonpeptidergic neuropeptide FF2 receptor agonists” (J Med Chem, 2009) come the findings set out here.

Chains of the proteins cited; added tags and fusions are not shown. Lines headed by an entry give the natural chain unless they say otherwise; changes in a name come on top.
UniProt Q9Y5X5: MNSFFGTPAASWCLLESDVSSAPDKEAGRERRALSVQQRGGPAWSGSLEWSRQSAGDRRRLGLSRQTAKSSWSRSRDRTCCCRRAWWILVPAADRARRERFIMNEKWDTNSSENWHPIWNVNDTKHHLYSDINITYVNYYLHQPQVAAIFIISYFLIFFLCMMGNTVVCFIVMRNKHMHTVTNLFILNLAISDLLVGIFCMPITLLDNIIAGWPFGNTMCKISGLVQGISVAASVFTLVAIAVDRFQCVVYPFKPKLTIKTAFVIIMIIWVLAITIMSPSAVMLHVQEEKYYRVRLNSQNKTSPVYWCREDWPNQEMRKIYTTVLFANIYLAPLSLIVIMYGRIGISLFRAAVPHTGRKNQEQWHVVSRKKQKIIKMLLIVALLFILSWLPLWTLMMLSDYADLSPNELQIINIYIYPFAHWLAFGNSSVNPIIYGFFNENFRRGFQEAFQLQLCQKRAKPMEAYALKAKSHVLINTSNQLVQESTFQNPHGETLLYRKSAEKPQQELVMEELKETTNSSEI

For this test, the target named is Neuropeptide FF receptor 2 (Homo sapiens, UniProt Q9Y5X5). As to the kind of experiment: Agonist activity at human NPFF2 receptor expressed in cells assessed as beta-galactosidase levels after 5 days. Format: functional, cell-based. An outline of the steps: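 Functional R-SAT assay at human NPFF1 and NPFF2 receptors in agonist mode. Dose-response curves were built from seven concentrations, each tested in triplicate. Values are mean ± SEM of at least three independent experiments.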

SMILES strings stand for the structures.

The term EC50 denotes the midpoint of the concentration-response curve. On to `N=C(N)N/N=C/c1ccc(Cl)c(C(F)(F)F)c1`, for which the EC50 is 501 nM.
